# Laboratory results from article PMC4761891, “CD36 is a co-receptor for hepatitis C virus E1 protein attachment” (Scientific Reports, 2016).
# Amino acid sequences for entries named in this document (tags omitted). Residues count along the entry.
# UniProt P16671, 2-472 limits assumed: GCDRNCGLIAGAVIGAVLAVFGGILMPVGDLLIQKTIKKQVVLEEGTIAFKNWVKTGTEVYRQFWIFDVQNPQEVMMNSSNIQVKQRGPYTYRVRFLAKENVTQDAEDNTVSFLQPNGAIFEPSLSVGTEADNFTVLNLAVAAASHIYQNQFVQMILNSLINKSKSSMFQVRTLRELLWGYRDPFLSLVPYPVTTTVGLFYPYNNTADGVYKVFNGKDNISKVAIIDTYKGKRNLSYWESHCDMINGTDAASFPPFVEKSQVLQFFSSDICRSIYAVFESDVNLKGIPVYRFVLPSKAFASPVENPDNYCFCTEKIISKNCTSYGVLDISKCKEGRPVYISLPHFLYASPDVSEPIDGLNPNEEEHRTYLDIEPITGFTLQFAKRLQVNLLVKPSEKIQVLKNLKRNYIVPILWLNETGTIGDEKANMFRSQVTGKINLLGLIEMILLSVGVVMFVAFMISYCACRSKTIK
# Experiments:
# HCV [1] = assay: Anti-HCV activity in HCV-infected Huh7.5 cells (intracellular HCV RNA, qRT-PCR); assay type: cell-based, hepatitis C virus; conditions: cytotoxicity by MTT assay vs anti-HCV EC50, 72 hrs
# CD36 = molecular target: T1, CD36 (Homo sapiens, UniProt P16671); assay: BIAcore surface plasmon resonance binding to CD36-HA; conditions: immobilised CD36-HA; SSO 50, 100, 200, 500 μM
# T1 construct: made in house; host or cells: 293T/17 cells
# [2] = molecular target: interaction between CD36 and HCV E1 (Homo sapiens, UniProt P16671); conditions: 20 μM SSO, lysates of HCV-infected Huh7.5 cells
# HCV [3] = assay: Time-of-addition assay; assay type: cell-based, hepatitis C virus; conditions: 10 μM SSO, Huh7.5, HCV 300 IU/cell
# Protocol: Huh7.5 cells were infected with HCV (300 IU/cell) and incubated at 4 °C for 2 hrs, the cells were then washed with cold PBS and shifted to 37 °C (set as 0 hr time point) to initiate synchronous infection. At −2, −1, 0, 1, 2, 3, 4 hr, 10 μM SSO, or 10 nM bafilomycin A1, or solvent control was added, and the cells were incubated for 2 hrs prior to removal (the exception is t = −2 hr and −1 hr where compound were added back after removal of the virus and incubated for additional 2 hrs prior to removal). Intracellular HCV RNA was detected after 72 hrs incubation. Inhibitory ratio was calculated as % relative to infectious control (0%). Fitted lines represent sigmoidal time-dependent curves.
smiles,measurement,setting,value
"CCCCCCCC/C=C\CCCCCCCC(=O)ON1C(=O)CC(S(=O)(=O)O)C1=O (stereo not shown) [SSO, sulfo-N-succinimidyl oleate]",selective index (SI),HCV [1],above 326
same,direct binding to CD36 (BIAcore),CD36,direct binding between CD36 and SSO was detected
same,effect on the interaction between CD36 and HCV E1 (Co-IP),[2],could directly disrupt the interaction between CD36 and HCV E1
same,activity when added after the temperature shift,HCV [3],almost completely lost its activity
